Reference: patent publication US20250318521A1, “COMBINATION FOR REDUCING PHYTOTOXICITY OF SYSTEMIC FUNGICIDES IN CROPS AND RELATED METHODS” (UPL Mauritius Limited, priority 2024, published 2025)

Tested on: soyabean crop
Assay: Evaluation of % damage in soyabean crop using safener (prothioconazole phytotoxicity reduction)
Settings: for damage to crop: compared with the other safeners; for % Damage: soyabean
Text: A 480 SC (suspension concentrate) formulation of prothioconazole was used. The application amount of prothioconazole was high in an amount of 350 g ai/ha.
A 480 SC (suspension concentrate) formulation of prothioconazole was used. The application amount of prothioconazole was lower in an amount of 175 g ai/ha.

## zinc salt of ethylenediaminetetraacetic acid (EDTA) [Zn chelate (Zinc EDTA)]
Table 1, prothioconazole 350 g ai/ha
  damage to crop: significantly lesser
Table 2, prothioconazole 175 g ai/ha
  damage to crop: significantly lesser
Prothioconazole 175 g ai/ha (480 SC) + safener 67 g ai/ha, ratio 2:1
  % Damage: 5.0%
Prothioconazole 175 g ai/ha (480 SC) + safener 202 g ai/ha, ratio 1:0.8
  % Damage: 7.0%
Prothioconazole 350 g ai/ha (480 SC) + safener 67 g ai/ha, ratio 5:1
  % Damage: 15%
Prothioconazole 350 g ai/ha (480 SC) + safener 202 g ai/ha, ratio 1.7:1
  % Damage: 10%
